The text below walks through data of patent US7731856B2, “Method and system for treating waste matter from animals, urea-rich and urea-lean waste-matter products, and uses thereof” (Waste 2 Green, LLC, priority 2003, dated 2010).

For one assay, the target named is urease EC 3.5.1.5 (Canavalia ensiformis, UniProt P07374). As to conditions: for colour shift of phenolphthalein into red (ammonia formation by urea hydrolysis): 1 g inhibitor added to 10 g urea in 50 ml water, then 1 ml urease (540 units per ml), system also does not begin to smell of ammonia; for catalytic effect of the urease enzyme on the hydrolysis of urea: ions present in the urinal system. On the procedure:
For this example, a colourless urea reference system is defined by the following mixture: in a conical flask 10 g of synthetic urea is diluted with water to 50 ml, three drops of the acid-base indicator phenolphthalein is added.

The target of a further assay is urease (Canavalia ensiformis, UniProt P07374). The following applies: 30 ml methanal (24% by weight) added to urease-contaminated urea system containing the inhibitor. On the procedure:
This can simply be studied by addition of 30 ml of methanal to the urease-contaminated and Cu^2+-contaminated reference system.
This is simple studied by addition of 30 ml methanal to the reference system contaminated with urease, Ag^+- or Pb^2+-ions.

Consider copper sulphate, pentahydrate, for which, at urease EC 3.5.1.5, the “colour shift of phenolphthalein into red (ammonia formation by urea hydrolysis)” value was “the colour shift of phenolphthalein does not occur” and the “catalytic effect of the urease enzyme on the hydrolysis of urea” value is “completely lost”. For the same compound, on urease, the “formation of urea formaldehyde plastic in spite of urease contamination” value is on record as “it is possible to form the urea formaldehyde plastic”.

As for `CC(=O)[O-].CC(=O)[O-].[Pb+2]` [lead acetate], at urease EC 3.5.1.5, the “colour shift of phenolphthalein into red (ammonia formation by urea hydrolysis)” value was “the colour shift of phenolphthalein does not occur” and the “catalytic effect of the urease enzyme on the hydrolysis of urea” value was “completely lost”. Also, at urease, the “formation of urea formaldehyde plastic in spite of urease contamination” value was “it is possible to form the urea formaldehyde plastic”.
